Assay results taken from patent US20200297862A1, “METHODS OF USING BISPECIFIC ANTIGEN-BINDING CONSTRUCTS TARGETING HER2” (Zymeworks Inc., priority 2016, published 2020).

What was measured:
Format in all cases: cell-based, human
[1] = system: BT-474 cells; test: Growth inhibition in the presence or absence of exogenous ligands (EGF, HRG)
[2] = system: JIMT-1 cells; test: Whole cell loading and internalization (AlexaFluor 488 labelled antibody, flow cytometry)
[3] = system: MDA-MB-231 cells; test: ADCC, NK effector cells E:T 5:1
[4] = system: BT-474 cells; test: Growth inhibition of HER2+ cells (cell viability); settings: 200 nM antibody, 3 days; Table 11A
Experimental: The ability of an exemplary biparatopic anti-HER2 antibody to inhibit growth of cells expressing HER2 at the 3+ and 2+ level was measured. […] The ability of the biparatopic anti-HER2 antibodies to inhibit the growth of BT-474 cells (200 nM antibody); SKOV3, SKBr3 and JIMT-1 cells (300 nM antibody) was measured as described below.
Test antibodies were diluted in media and added to the cells at 10 μl/well in triplicate. The plates were incubated for 3 days 37° C. Cell viability was measured using either AlamarBlue™ (Biosource # dal1100), or Celltiter-Glo® and absorance read as per the manufacturer's instructions. Data was normalized to untreated control and analysis was performed in GraphPad prism.

[5] = system: BT-474 cells; test: Whole cell loading and internalization (AlexaFluor 488 labelled antibody, flow cytometry)
[6] = 200 nM labelled antibody, 24 h at 37° C., Table 40
[7] = 200 nM labelled antibody, 24 h at 37° C., Table 39

v5019: biparatopic anti-HER2 antibody, Fab-scFv: pertuzumab Fab (ECD2) chain A, trastuzumab scFv (ECD4) chain B, heterodimeric Fc
growth inhibition in the absence of growth stimulatory ligand [1]: 70% | growth inhibition in the presence of HRG ([1]; 10 ng/mL HRG): ~10% | % Survival +HRG ([1]; 10 ng/mL HRG, 5 days, Table 26): 92% | growth inhibition in the presence of EGF ([1]; 50 ng/mL EGF): 40% | % Survival +EGF ([1]; 50 ng/mL EGF, 5 days, Table 26): 56% | % Survival Antibody only ([1]; 5 days, Table 26): 31% | % Survival +EGF ([1]; Table 46): 81% | % Survival +HRG ([1]; Table 46): 133% | % Survival Antibody only ([1]; Table 46): 67% | Surface 4° C. ([2]; 200 nM labelled antibody, 2 h at 4° C., Table 40): 437 | Internal 37° C. [2, 6]: 1035 | Surface 37° C. [2, 6]: 5.2 | reduction of antibody detected on the surface of whole cells ([2]; 24 h at 37° C. vs 2 h at 4° C.): ~57% and ~64% | MDA-MB-231 HER2 0/1+ Max % Target Cell Lysis ([3]; NK E:T 5:1, Table 23): 53% | % Max Cell Lysis(top only) ([3]; NK-92 E/T 5:1, Table 45): 77% and 71% | EC50 ([3]; NK-92 E/T 5:1, Table 45, read-out: EC50): 0.2 nM | EC50 ([3]; read-out: MDA-MB-231 HER2 0/1+ EC50, NK E:T 5:1, Table 23): 0.9 nM | % Survival BT-474 HER2 3+ [4]: 43% | Surface 4° C. ([5]; 200 nM labelled antibody, 2 h at 4° C., Table 39): 2867 | Internal 37° C. [5, 7]: 5710 | Surface 37° C. [5, 7]: 2675 | reduction of antibody detected on the surface of whole cells ([5]; 24 h at 37° C. vs 2 h at 4° C.): ~15%

Several values for one entry are separate records, joined by “and”; a condition that tells them apart may be missing. Equal entries are not always repeated. Where two headings read alike, the source gives them in different places.
